This note sets out measurements from PubChem BioAssay AID1948 (National Center for Advancing Translational Sciences (NCATS), 2009).

This is a selection; strong and weak results do not stand in their true shares. Active and inactive are the calls of the source. Calls follow the shape of the dose curve; as a rule, active = well fitted activation curve with a large enough effect; inconclusive = small, poorly fitted or top-dose-only effect; inactive = no such curve, though single readings can be large or run the other way.

The nature of this experiment: qHTS Assay for Compounds that Induce Erasure of Genomic Imprints.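 Also: 0% = negative control wells on the plate.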 The conditions noted are these: mouse ES Peg3-LacZ reporter, beta-gal luminescence, 40 h. (Quantitative high-throughput screening tests each substance at several concentrations.)
Setting [1] is: at 60.7 µM (top of the series) unless noted.

As to `[N-]=[N+]=NCC(O)CN=[N+]=[N-]` (stereo unspecified), the activity change, positive = activation under setting [1] was inactive: -14.3% [at 10.9 µM]. The same measure, in the same setting: with `CN(C(=O)Cc1ccc(Cl)c(Cl)c1)[C@H]1CCCC[C@@H]1N1CCCC1` the figure was inactive: -11.5% [middle of 6 runs]; with `NCC[C@@H](N)CSP(=O)(O)O`, inactive: -7.63% [at 10.9 µM].

Regarding `Cc1c2non([O-])c-2c(C)[n+](=O)[n+]1[O-]`, the activity change, positive = activation under setting [1] is inactive: -40.5%.

Take `O=[N+]([O-])c1ccc(C[As](=O)(O)O)cc1`: the activity change, positive = activation under setting [1] is inactive: 2.59% [at 10.9 µM]. Still for that read-out and setting: with `O=C(CO)Nc1ccc([As](=O)(O)O)cc1` the figure was inactive: -4.12% [at 10.9 µM].

Take `CC(=O)C1=CCCC2CCC1N2` (stereo unspecified): the activity change, positive = activation under setting [1] is inactive: 6.7%. `CCc1nc2c(n1)c1c(non1O)c1c2no[n+]1[O-]`: under setting [1], the activity change, positive = activation was inactive: -31.3%.

Take `O=C(OC1CN2CCC1CC2)c1cccc(Cl)c1` (stereo unspecified): the activity change, positive = activation under setting [1] was inactive: -21%. For `[N-]=[N+]=Nc1ccc([As](=O)(O)O)cc1`, under setting [1], the activity change, positive = activation was inactive: -6.66% [at 10.9 µM]. Still for that read-out and setting: with `C[C@@H](O)COc1ccc([As](=O)(O)O)cc1N` the figure was inactive: -2.8% [at 10.9 µM]; with `CN1CCC[C@H](OC(=O)C(c2ccccc2)c2ccccc2)C1`, inactive: -13.6% [at 10.9 µM].

On to `c1nnnn1CCn1cnnn1`, for which the activity change, positive = activation under setting [1] was inactive: -0.829%. On the same count and under the same terms, under `O=P(Nc1nccs1)(c1ccccc1)c1ccccc1` stands inactive: -9.52%; under `O=P1(Nc2nc3ccc(Cl)cc3s2)COc2ccccc2O1` (stereo unspecified), inactive: 7.49%. Still for that read-out and setting: with `COC(=O)c1cc2c(s1)N=C(c1ccccc1)N(C)P2(=O)N1CCOCC1` (stereo unspecified) the figure was inactive: -6.76%. Turning to `CN(C(=O)Cc1ccc(Cl)c(Cl)c1)[C@@H]1CCCC[C@@H]1N1CCCC1`, under setting [1], the activity change, positive = activation was inactive: -9.89%. Still for that read-out and setting: under `CCOP1(=S)c2c(C)nn(CCC#N)c2N=C(c2ccc(F)cc2)N1C` (stereo unspecified) stands inactive: -12.8%. For the compound `NC(=O)Nc1ccc([As](=O)(O)O)cc1`, the activity change, positive = activation is inactive: 1.25% (at 16.8 µM (top of the series)) and inactive: 2.87% (at 60.7 µM (top of the series)).

Consider `O=[As](O)(O)c1ccc([As](=O)(O)O)cc1`, for which the activity change, positive = activation under setting [1] was inactive: -5.73% [at 10.9 µM]. The same measure, in the same setting: with `CCOP1(=S)c2c(C)nn(CCC#N)c2N=C(c2ccccc2F)N1C` (stereo unspecified) the figure was inactive: -11.3%; with `O=P(Nc1nccs1)(c1ccccc1)c1nc2ccccc2s1` (stereo unspecified), inactive: -8.2%; with `O=C(CC(=O)c1ccccc1)O[C@H]1CN2CCC1CC2`, inactive: -17.6% [at 10.9 µM]. Same read-out and setting: under `NS(=O)(=O)Cc1ccc([As](=O)(O)O)cc1` stands inactive: -8.48% [at 10.9 µM]; under `CN(C(=O)Cc1ccc(Cl)c(Cl)c1)[C@@H]1CC[C@]2(CCCO2)C[C@H]1N1CCCC1`, inactive: -11.7%. Consider `CN(C(=O)Cc1ccc(Cl)c(Cl)c1)[C@@H]1CCCC[C@H]1N1CCCC1`, for which the activity change, positive = activation under setting [1] was inactive: -4.88%. Same read-out and setting: under `Clc1n[nH]nc1-c1nn[nH][15n]1` stands inactive: -0.0809%; under `CN(CCCl)Cc1cc(Cl)c(NC2=NCCN2)c(Cl)c1`, inactive: -60.8%.

Take `O=P1(Nc2ccccn2)COc2ccccc2OC1`: the activity change, positive = activation under setting [1] was inactive: 4.5%.

As to `O=P1(Nc2ccc(Br)cn2)COc2ccccc2OC1`, the activity change, positive = activation under setting [1] is inactive: 6.9%. For `O=P1(Nc2ncccn2)COc2ccccc2OC1`, the activity change, positive = activation under setting [1] was inactive: -8.03%. Same read-out and setting: with `Cc1nn(-c2ccccc2)c2c1P(=O)(N1CCOCC1)N(C)C(c1ccccc1)=N2` (stereo unspecified) the figure was inactive: 4.72%; with `CN(N=O)C(=N)N[N+](=O)[O-]`, inactive: -5.21%. `O=C(O)[C@@H](O)c1ccc([As](=O)(O)O)cc1`: under setting [1], the activity change, positive = activation was inactive: 12.7% [at 10.9 µM]. In the case of `O=C(COc1ccccc1)OC1CN2CCC1CC2` (stereo unspecified), the activity change, positive = activation under setting [1] is inactive: 4.47%. For `COP1(=S)c2c(C)nn(CCC#N)c2N=C(c2ccc(F)cc2)N1C` (stereo unspecified), the activity change, positive = activation under setting [1] is inactive: -15.9%. Still for that read-out and setting: under `NC(=O)Nc1cc([As](=O)(O)O)cc(I)c1O` stands inactive: -5.03% [at 10.9 µM]. Still for that read-out and setting: under `O=C(OC1CN2CCC1CC2)C12CC3CC(CC(C3)C1)C2` (stereo unspecified) stands inactive: -25%; under `[N-]=[N+]=NCC(N)=O`, inactive: 0.27% [at 10.9 µM]; under `O=[As]c1ccc(S(=O)(=O)NCCO)cc1` (stereo unspecified), inactive: -8.22% [at 10.9 µM].
